Molecular target: T1, EGFR expressed on the surface of A431 cells (Homo sapiens, UniProt P00533)
T1 construct: A431 cells (10^4 or 10^5 per well) were grown in 96 well microtiter plates overnight; endogenous in cells; host or cells: A431 human epidermoid carcinoma cells
Test: A431 cell ELISA for the detection of EGFR antigen binding
Conditions: COS cell supernatants

B1: H225: reshaped human (CDR-grafted) 225 antibody, first versions of kappa light and heavy chain variable regions (antibody, V domains shown)
VL: EIVLTQSPATLSLSPGERATLSCRASQSIGTNIHWYQQRPGQAPRLLIKYASESISGIPARFSGSGSGTDFTLTISSLEPEDFAVYYCQQNNNWPTTFGGGTKVEIK
VH: EVQLVESGGGLVQPGGSLRLSCAVSGFSLTNYGVHWVRQATGKGLEWLGVIWSGGNTDYNTPFTSRLTISKENAKNSLYLQMNSLRAGDTAVYYCARALTYYDYEFAYWGQGTMVTVSS
With B1 the “binding to EGFR in the cell ELISA” value was “significant level of binding to EGFR” and the “relative affinity compared with the chimeric C225 antibody” value was “about 65%”.

From patent US7060808B1, “Humanized anti-EGF receptor monoclonal antibody” (ImClone Systems Incorporated, priority 1995, dated 2006)
